The conditions of data set [1]: in vivo; cited from earlier work.
The test system of data set [2] is plasma albumin. Conditions: ref Zhou et al., 2019; Boztug et al., 2017; Yamaguchi et al., 2023; cited from earlier work.
For data set [3] the following is noted: in vivo.
For data set [4] the following is noted: human, in vivo; cited from earlier work.

As for teicoplanin, in data set [1], the “CL, previously reported values” is 0.38 to 1.03 L/h and the elimination half-life is 30 to 180 h. Also, the “protein binding to plasma albumin” value in data set [2] is “over 90%”. Besides, in data set [3] (human), the “CL, final model estimate” value is listed as 0.98 L/h; the V in males is reported as 90.43 L; the “V in the absence of CRRT” value is given as 76.68 L; the “V in the presence of CRRT” value was 37.87 L. Further, the “V, final model estimate” value in data set [3] (human) was 108.69 L. In addition, in data set [3], the “CL, bootstrap median” value is 0.97 L/h; the V in females was determined as 31.85 L; the “V lower in the presence of CRRT than in the absence” value is on record as 102.48%; the “V, bootstrap median” value came out at 107.89 L. Further, in data set [3], the “θCRRT,V, bootstrap median” value is given as −0.70; the “θCRRT,V, final model estimate” value is given as −0.71; the “θSex,V, bootstrap median” value is reported as −1.07; the “θSex,V, final model estimate” value was −1.07. Also, in data set [4], the “overall mean Cmin” value was 9000 ng/mL and the “share of Cmin lower than expected (<10 μg/mL)” value was 14.1%.

The record behind these values is article PMC12259427 (Frontiers in Pharmacology, 2025).
